Results reported in ChEMBL document CHEMBL1127336, “P1 aspartate-based peptide alpha-((2,6-dichlorobenzoyl)oxy)methyl ketones as potent time-dependent inhibitors of interleukin-1 beta-converting enzyme” (J Med Chem, 1994).

Target: T1, Caspase-1 (Homo sapiens) (UniProt P29466)
T1 sequence (whole entry): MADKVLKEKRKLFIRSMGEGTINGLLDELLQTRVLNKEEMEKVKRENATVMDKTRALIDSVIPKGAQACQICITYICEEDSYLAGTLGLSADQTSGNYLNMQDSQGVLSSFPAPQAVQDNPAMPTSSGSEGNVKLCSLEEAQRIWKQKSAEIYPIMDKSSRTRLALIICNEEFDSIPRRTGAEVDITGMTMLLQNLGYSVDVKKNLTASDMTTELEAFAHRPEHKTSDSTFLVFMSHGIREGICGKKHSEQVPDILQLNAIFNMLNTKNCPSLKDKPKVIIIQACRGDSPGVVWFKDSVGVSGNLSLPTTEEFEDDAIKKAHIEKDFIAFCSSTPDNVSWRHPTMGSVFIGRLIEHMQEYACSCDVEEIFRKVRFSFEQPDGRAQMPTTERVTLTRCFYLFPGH
Assay: Compound was evaluated for the ability to inhibit Interleukin-1-beta-converting enzyme (ICE) purified from THP-1 cells

k obs / 1: 407000 M⁻¹ s⁻¹
Structure (SMILES): CC(C)[C@H](NC(=O)OCc1ccccc1)C(=O)N[C@@H](C)C(=O)N[C@@H](CC(=O)O)C(=O)COC(=O)c1c(Cl)cccc1Cl
